Test results taken from PubChem BioAssay (NCATS).
The entries are a selection whose mix differs from that of the whole data set. Results filed as inconclusive are left out. Activity calls are given as the source filed them. Unless noted, the call rests on the fitted dose curve; in most records, active means well fitted curve in the direction sought with a large enough effect; inconclusive means small, poorly fitted or top-dose-only effect, or another doubt; inactive means no such curve, though single readings can be large; an effect the other way counts as inactive or inconclusive.

Sequences of proteins named here, by UniProt entry; tags and fusion partners are left off. A change or cut given only in a name is not applied to a line headed by its entry.
UniProt O94925: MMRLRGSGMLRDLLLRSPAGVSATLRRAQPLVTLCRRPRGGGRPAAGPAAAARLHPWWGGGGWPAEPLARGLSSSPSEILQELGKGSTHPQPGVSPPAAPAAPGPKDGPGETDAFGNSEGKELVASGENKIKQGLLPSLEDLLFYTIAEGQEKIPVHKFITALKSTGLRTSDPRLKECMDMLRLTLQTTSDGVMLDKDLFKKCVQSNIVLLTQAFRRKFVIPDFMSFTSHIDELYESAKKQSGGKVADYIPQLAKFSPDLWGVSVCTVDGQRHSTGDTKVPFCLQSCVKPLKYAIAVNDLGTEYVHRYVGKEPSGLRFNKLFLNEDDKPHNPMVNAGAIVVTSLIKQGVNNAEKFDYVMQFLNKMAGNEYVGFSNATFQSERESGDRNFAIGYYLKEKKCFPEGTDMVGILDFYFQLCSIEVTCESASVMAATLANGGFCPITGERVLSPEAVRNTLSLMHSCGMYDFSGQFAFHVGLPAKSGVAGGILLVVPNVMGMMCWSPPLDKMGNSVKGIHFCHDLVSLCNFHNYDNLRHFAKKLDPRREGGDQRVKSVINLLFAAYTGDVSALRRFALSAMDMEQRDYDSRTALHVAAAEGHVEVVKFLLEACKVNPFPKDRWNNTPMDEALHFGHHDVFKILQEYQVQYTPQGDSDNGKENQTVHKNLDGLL
UniProt P43220, whole entry, looked up: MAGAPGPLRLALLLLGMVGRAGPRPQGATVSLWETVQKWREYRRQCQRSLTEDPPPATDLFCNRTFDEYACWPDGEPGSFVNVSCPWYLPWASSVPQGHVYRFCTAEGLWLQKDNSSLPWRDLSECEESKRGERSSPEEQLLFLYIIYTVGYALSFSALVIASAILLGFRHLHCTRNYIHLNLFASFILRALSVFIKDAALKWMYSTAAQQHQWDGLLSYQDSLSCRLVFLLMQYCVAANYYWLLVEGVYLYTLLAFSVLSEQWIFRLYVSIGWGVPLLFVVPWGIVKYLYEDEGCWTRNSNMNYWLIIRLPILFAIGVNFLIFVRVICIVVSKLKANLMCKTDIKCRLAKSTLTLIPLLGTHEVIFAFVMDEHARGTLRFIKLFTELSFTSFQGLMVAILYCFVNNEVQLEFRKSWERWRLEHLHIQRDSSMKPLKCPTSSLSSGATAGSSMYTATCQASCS
UniProt P15289: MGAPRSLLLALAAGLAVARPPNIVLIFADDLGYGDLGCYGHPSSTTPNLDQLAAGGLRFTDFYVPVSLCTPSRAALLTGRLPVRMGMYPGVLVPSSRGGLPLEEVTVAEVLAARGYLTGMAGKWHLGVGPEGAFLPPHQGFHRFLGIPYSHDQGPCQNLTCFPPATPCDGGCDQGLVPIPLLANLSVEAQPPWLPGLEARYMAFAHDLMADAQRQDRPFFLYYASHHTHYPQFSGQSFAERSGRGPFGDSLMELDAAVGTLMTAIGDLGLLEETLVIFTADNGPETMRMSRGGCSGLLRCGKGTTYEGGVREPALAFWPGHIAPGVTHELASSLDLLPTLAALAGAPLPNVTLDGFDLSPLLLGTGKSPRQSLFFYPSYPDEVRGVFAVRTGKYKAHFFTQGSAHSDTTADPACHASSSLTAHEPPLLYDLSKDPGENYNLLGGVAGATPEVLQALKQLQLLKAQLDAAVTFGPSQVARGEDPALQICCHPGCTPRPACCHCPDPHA
UniProt P35557, whole entry, looked up: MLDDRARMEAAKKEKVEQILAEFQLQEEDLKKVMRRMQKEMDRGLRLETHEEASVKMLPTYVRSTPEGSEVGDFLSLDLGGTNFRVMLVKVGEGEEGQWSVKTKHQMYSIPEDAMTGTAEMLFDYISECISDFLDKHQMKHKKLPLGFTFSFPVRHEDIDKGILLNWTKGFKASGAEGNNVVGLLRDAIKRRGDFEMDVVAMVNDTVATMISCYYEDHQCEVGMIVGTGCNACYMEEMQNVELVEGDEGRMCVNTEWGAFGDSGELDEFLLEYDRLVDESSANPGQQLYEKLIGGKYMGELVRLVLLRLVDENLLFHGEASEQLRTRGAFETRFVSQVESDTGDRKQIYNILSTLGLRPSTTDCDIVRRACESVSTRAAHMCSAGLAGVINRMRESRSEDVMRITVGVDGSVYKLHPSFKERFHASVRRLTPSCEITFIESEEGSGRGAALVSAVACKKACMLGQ
UniProt Q14397: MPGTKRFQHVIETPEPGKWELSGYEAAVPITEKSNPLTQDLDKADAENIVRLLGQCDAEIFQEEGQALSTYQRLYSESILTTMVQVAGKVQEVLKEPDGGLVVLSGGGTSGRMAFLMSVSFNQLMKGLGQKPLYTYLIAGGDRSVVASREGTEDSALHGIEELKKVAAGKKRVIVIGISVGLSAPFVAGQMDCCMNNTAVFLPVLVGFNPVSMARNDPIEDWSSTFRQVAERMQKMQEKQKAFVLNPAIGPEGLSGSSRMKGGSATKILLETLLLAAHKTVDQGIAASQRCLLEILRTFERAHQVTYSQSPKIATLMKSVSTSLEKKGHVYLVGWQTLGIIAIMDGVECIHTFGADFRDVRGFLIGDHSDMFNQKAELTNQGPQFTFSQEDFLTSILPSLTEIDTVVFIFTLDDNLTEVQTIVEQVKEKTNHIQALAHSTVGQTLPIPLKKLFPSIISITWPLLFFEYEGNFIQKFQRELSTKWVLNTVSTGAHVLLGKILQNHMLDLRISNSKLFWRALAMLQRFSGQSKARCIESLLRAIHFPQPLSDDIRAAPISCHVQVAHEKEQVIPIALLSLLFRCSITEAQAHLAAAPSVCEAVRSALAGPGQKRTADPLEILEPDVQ
UniProt P16066: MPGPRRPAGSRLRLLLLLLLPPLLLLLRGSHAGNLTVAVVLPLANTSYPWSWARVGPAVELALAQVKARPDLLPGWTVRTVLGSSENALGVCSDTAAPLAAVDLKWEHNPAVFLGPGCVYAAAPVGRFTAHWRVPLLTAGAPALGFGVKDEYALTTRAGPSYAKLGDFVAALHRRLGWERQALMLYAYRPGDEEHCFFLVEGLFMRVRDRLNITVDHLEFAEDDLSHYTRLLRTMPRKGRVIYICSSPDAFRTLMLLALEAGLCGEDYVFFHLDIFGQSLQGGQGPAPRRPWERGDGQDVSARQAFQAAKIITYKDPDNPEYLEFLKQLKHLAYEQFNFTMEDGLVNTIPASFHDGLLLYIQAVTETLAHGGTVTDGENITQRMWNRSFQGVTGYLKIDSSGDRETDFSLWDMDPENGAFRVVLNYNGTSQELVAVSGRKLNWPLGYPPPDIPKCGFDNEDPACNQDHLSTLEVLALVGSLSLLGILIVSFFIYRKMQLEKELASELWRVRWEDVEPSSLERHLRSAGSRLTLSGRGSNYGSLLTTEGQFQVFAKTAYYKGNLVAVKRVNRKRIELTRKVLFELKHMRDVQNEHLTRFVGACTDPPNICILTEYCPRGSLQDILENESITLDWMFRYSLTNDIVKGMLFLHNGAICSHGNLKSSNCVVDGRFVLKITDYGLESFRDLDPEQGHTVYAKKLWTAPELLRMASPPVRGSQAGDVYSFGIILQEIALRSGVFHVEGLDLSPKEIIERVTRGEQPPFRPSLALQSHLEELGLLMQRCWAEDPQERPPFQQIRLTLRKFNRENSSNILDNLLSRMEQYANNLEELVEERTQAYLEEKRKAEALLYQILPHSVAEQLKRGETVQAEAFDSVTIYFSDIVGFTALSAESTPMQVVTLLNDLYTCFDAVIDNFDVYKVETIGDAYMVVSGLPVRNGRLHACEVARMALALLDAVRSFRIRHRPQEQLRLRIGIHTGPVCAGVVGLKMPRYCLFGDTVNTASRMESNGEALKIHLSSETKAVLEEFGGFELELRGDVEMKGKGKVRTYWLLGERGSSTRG

Tests used:
[1] = qHTS for Inhibitors of ATXN expression: Validation of Cytotoxic Assay (AID 588349); settings: cytotoxicity counter-screen for ATXN expression inhibitors, cell viability; at 57.1 µM (top of the series); further: on the % scale 0 is the no-effect control and ±100 the full control effect
How it was run: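 Toxicity of test compounds toward HEK293 cells is scored from cellular ATP content measured by CellTiter Glo. Cells receive titrated doses and incubate 72 hr at 37 degrees C beforehand.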

[2] = biological target: Glutaminase kidney isoform, mitochondrial (Homo sapiens) (UniProt O94925); assay: qHTS for Inhibitors of Glutaminase (GLS): LOPAC Validation (AID 624146);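 further: glutamate product detected by oxidase and peroxidase coupled Amplex red fluorescence gain; on the % scale 0 is the no-effect control and ±100 the full control effect; nearly all actives have a fitted effect of over 60% in size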
How it was run: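 Compounds were pin-transferred onto hKGA, after which L-glutamine (1 mM solution) and a detection mix of glutamate oxidase, HRP and Amplex Red were added. Initial and 30 min RT fluorescence reads were collected.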

[3] = biological target: Glucagon-like peptide 1 receptor (Homo sapiens) (UniProt P43220); assay: qHTS of GLP-1 Receptor Agonists: LOPAC Validation (AID 624148); settings: GLP-1R agonist cell assay; at 46.1 µM (top of the series);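 further: luminescence from a luciferase reporter switched on by cAMP; 0% is about no effect; higher luminescence signal means agonism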
How it was run: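 Agonism scored as increased luciferase luminescence driven by cAMP in HEK293 clones carrying GLP-1R. Cells settled 12 hours, received compound for 4-6 hr at 37 deg C, 5% CO2, and were read after 12 min detection reagent at RT.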

[4] = qHTS of Nrf2 Activators: LOPAC Validation (AID 624149); settings: Nrf2/ARE reporter cell assay; at 46.1 µM (top of the series); further: 0% is about no effect
How it was run: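 Following overnight seeding in 5% FBS OPTI-MEM, AREc32_Fluc cells receive compounds for a 24 hr incubation at 37 deg C with 5% CO2. Steady-Glo is added, and after 30 min at RT luminescence is recorded.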

[5] = HTS Assay for Allosteric Antagonists of the Human D2 Dopamine Receptor: Hit Validation in HTRF (AID 624455); settings: D2 receptor cells, HTRF cAMP read-out, antagonist mode; at 46.1 µM (top of the series);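 further: stable D1 dopamine receptor cell line scored for blocking the D1 response; on the % scale 0 is the no-effect control and ±100 the full control effect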
How it was run: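 Validation of hits used D1 receptor stably expressed in cells with HTRF detection of response inhibition; origin screen measured calcium flux following EC80 dopamine in a force-coupled, inducible Hek293 Trex D2 cell line.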

[6] = biological target: Arylsulfatase A (Homo sapiens) (UniProt P15289); assay: qHTS screen for enhancers of Arylsulfatase A (ASA1): LOPAC Validation Assay (AID 720538); settings: ASA enzyme activity, LOPAC qHTS enhancer assay; activity change, positive = activation: at 57.5 µM (top of the series); further: 0% is about no effect
How it was run: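 Enhancer assay in patient-derived MLD fibroblasts carrying ASA-I179S: 48 h compound exposure at 37 C, then 14 h room-temperature pNCS turnover (0.5 mM final) in lysis buffer. Read by fluorescence at 525/598 nm after NaOH stop.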

[7] = qHTS for compounds that reverse cellular toxicity of Amyloid beta (A-beta) peptide in yeast: LOPAC Validation Assay (AID 720559); settings: yeast expressing A-beta; at 46.1 µM (top of the series);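 further: plate controls were DMSO for no effect and equimolar ferric chloride plus clioquinol rescue for full effect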
How it was run: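 Rescue of A-beta toxicity was scored as yeast growth by 600 nm absorbance after 48 hr at 30 C with compound. Normalization used DMSO (negative) and equimolar ferric chloride plus clioquinol (positive).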

[8] = qHTS for Activators of Parkin Expression: LOPAC Validation Assay (FLuc Reporter) (AID 720573;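 further: 0% = DMSO and 100% = positive control compounds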); settings: Cell line, PRKN promoter firefly luciferase reporter, vehicle wells = 0, positive control = 100%; at 46.1 µM (top of the series)
How it was run: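 FLuc signal from Parkin-promoter coincidence reporter neuronal cells, normalized to DMSO and positive control (100%). Cells (1,500/well) pre-incubated 24 h, then exposed to LOPAC compounds in 7-point dose response for 24 h at 37 C, 5% CO2.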

[9] = biological target: T1, Hexokinase-4 (Homo sapiens) + Glucokinase regulatory protein (Homo sapiens) (UniProt P35557+Q14397); assay: qHTS assay for inhibitors of recombinant human GCK-GKRP interaction: Diaphorase-coupled assay (AID 743205); settings: G6PDH/diaphorase resorufin fluorescence; at 57.5 µM (top of the series)
How it was run: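 A kinetic fluorescence read (Ex 525/Em 590 nm, every minute for 30 minutes) tracked resorufin from a G6PDH-diaphorase coupled GCK reaction. It contained 10 nM GST-GCK, 10 nM FLAG-GKRP, 5 mM glucose, 0.4 mM ATP in Hepes pH 7.6. Normalized to with/without-enzyme DMSO controls.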

[10] = biological target: T1, Hexokinase-4 (Homo sapiens) + Glucokinase regulatory protein (Homo sapiens); assay: qHTS assay for inhibitors of recombinant human GCK-GKRP interaction: ADP-Glo assay (AID 743206); settings: ADP-Glo luminescence, 60 min, 0% = vehicle-only wells with enzyme present; at 76.9 µM (top of the series);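 further: plate controls were DMSO plus enzyme for no effect and no enzyme for full effect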
How it was run: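 Pin-transferred compounds meet a 15 nM GST-GCK/15 nM FLAG-GKRP/2 uM S6P mix (dispense concentrations). ATP is then added to 0.4 mM final with 5 mM glucose, and the reaction runs 60 min at room temperature. ADP is quantified luminescently.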

[11] = biological target: T1, Hexokinase-4 (Homo sapiens) + Glucokinase regulatory protein (Homo sapiens); assay: qHTS assay for inhibitors of recombinant human GCK-GKRP interaction: HTRF assay (AID 743207); settings: recombinant GCK-GKRP HTRF binding, 60 min, with sorbitol-6-phosphate; at 57.5 µM (top of the series);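 further: 0% = DMSO with GCK present and -100% = DMSO wells lacking GCK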
How it was run: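 After 60 min equilibration at room temperature with anti-FLAG XL665 and anti-GST antibodies, FRET ratio (665/615 nm, excitation 320 nm) was read. Proteins: GST-GCK and FLAG-GKRP, each 5 nM, plus 2 uM S6P, pH 7.1 buffer; GCK-free wells define minimum signal.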

[12] = qHTS Assay for Identifying Gametocytocidal Compounds (AID 743244);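 further: on the % scale 0 is the no-effect control and ±100 the full control effect; actives lower the fluorescent signal which means gametocytes are killed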; settings: P. falciparum 3D7 stage III-V gametocytes, alamarBlue, 72 h; max response: hits give low values
[13] = Natriuretic polypeptide receptor (hNpr1) antagonism - Pilot counterscreen GloSensor control cell line (AID 1347045; calls by dose curve; further: on the % scale 0 is the no-effect control and ±100 the full control effect); settings: GloSensor cAMP control cell line, luminescence counterscreen; at 38.3 µM (top of the series)
How it was run: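 The SNP-driven cGMP luminescence signal (50 uM, 20 min, room temperature) was measured in GloSensor HEK293 control cells. Compounds were tested as a LOPAC titration series and preincubated for 30-50 min.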

[14] = biological target: Atrial natriuretic peptide receptor 1 (Homo sapiens) (UniProt P16066); assay: Natriuretic polypeptide receptor (hNpr1) antagonism - Pilot screen (AID 1347049; calls by dose curve;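 further: HEK293 cells with hNpr1 and GloSensor cGMP luciferase stimulated by 0.1 nM hNppA; agonist-evoked cGMP luminescence read 20 min after hNppA addition; on the % scale 0 is the no-effect control and ±100 the full control effect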); settings: hNpr1 cells, antagonist mode cGMP read-out; at 57.5 µM (top of the series)
How it was run: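 Receptor antagonism read as cGMP-dependent luminescence in hNpr1/pGS-40F HEK293 cells: pre-read after 30 min compound exposure, post-read 20 min after hNppA agonist at 0.1 nM final, all at room temperature, protected from light; A-71915 titration as control.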

CN(C(=O)Cc1ccc(Cl)c(Cl)c1)[C@@H]1CCCC[C@@H]1N1CCCC1
inactive: activity change, negative = cytotoxicity [1] -25.9% | Potency [2] | activation [3] -1.25% | activation [4] -1.6% | activity, negative = inhibition [5] -3.08% | activity change, positive = activation [6] -1.12% | growth rescue, positive = activation [7] -6.16% | activation [8] 3.41% | activity change, positive = activation [9] -6.23% | activity, positive = activation [10] -2.38% | activity change, negative = inhibition [11] -1.48% | max response [12] 16.7% | activity change, negative = inhibition [13] -4.99% | activity change, negative = inhibition [14] 5.2%
